Experimental data taken from patent US9359487B2, “Plasticizers based on mixed esters of succinate” (Proviron Holding N.V., priority 2012, dated 2016).

Assays:
[1] = Weight loss test (volatility) of transparent plastisole PVC film at 100° C.; assay type: physicochemical
Procedure: Their plasticising behaviour is compared in a plastisole based transparent PVC film.
(flooring type, top layer): Solvin 382NG 100 phr (obtainable from Solvay S.A., Belgium), plasticiser 50 phr, Ca/Zn stabiliser (Baerostab NT 306) 2.5 phr (obtainable from the company Baerlocher).
The transparent film so formed is subjected to amongst others a weight loss test (volatility) at 100° C. for respectively 4 and 7 days. The plasticiser efficiency is determined by means of a hardness measurement. A measure for the compatibility of the plasticiser is the transparency.

[2] = Volatility of pure plasticiser by thermal-gravimetrical analysis; assay type: physicochemical; details: 200° C./10 min, pure compound
[3] = dry blend compound, not shown in Table 3
[4] = plastisol, 50 phr plasticizer; for Extractions by H2O (Weight Difference %) 1 d: after 1 day; for Extractions by H2O (Weight Difference %) 7 d: after 7 days; for Extractions by H2O (Weight Difference %) dry: after drying the sample
[5] = transparent PVC film, 50 phr plasticiser, 4 days

CC(C)CCCCCCOC(=O)CCC(=O)OCCCCCCC(C)C [DINS, diisononylsuccinate]
Volatile: Weight difference @ 100° C. After 4 days (%) [1, 5]: −17.40%

Benzyl-(2-propylheptyl) succinate [BPHS]
Volatily plasticizer (weightloss [m %]) [2]: −12.9 m % | extraction of the pure plasticisers by means of water [3]: very good and better than the reference DINP, DOTP and DOA | Volatile: Weight difference @ 100° C. After 4 days (%) [1, 5]: −10.80% | Volatile: Weight difference @ 100° C. After 7 days (%) ([1]; transparent PVC film, 50 phr plasticiser, 7 days): −17.40% | delta vs. ref. (weight difference after 4 days) ([1]; versus DINP, 4 days): ×4.7 | delta vs. ref. (weight difference after 7 days) ([1]; versus DINP, 7 days): ×4.35 | Extractions by H2O (Weight Difference %) 1 d [4]: 1% | Extractions by H2O (Weight Difference %) 7 d [4]: 1.8% | Extractions by H2O (Weight Difference %) dry [4]: 0.2%

Benzyl-isononyl succinate [BINS]
Volatily plasticizer (weightloss [m %]) [2]: −15.1 m % | extraction of the pure plasticisers by means of water [3]: very good and better than the reference DINP, DOTP and DOA | Extractions by H2O (Weight Difference %) 1 d [4]: 0.8% | Extractions by H2O (Weight Difference %) 7 d [4]: 1.5% | Extractions by H2O (Weight Difference %) dry [4]: 0.1%
